This test deals with Fucose-binding lectin PA-IIL (Pseudomonas aeruginosa (strain ATCC 15692 / DSM 22644 / CIP 104116 / JCM14847 / LMG 12228 / 1C / PRS 101 / PAO1)) (UniProt Q9HYN5).

`COc1ccc(/C=C/C(=O)NC[C@H]2O[C@H](OC)[C@@H](O)[C@@H](O)[C@@H]2O)cc1OC` had a T1/2 of 8.8 min.

For the origin of these results see ChEMBL document CHEMBL4325854, “Synthetic small molecules as anti-biofilm agents in the struggle against antibiotic resistance” (Eur J Med Chem, 2019).
